Laboratory results from ChEMBL document CHEMBL4376840, “Application of Fluorine- and Nitrogen-Walk Approaches: Defining the Structural and Functional Diversity of 2-Phenylindole Class of Cannabinoid 1 Receptor Positive Allosteric Modulators” (J Med Chem, 2020).

Protein sequences, listed by entry. Tags and fused reporters are not part of them.
UniProt P21554, whole entry: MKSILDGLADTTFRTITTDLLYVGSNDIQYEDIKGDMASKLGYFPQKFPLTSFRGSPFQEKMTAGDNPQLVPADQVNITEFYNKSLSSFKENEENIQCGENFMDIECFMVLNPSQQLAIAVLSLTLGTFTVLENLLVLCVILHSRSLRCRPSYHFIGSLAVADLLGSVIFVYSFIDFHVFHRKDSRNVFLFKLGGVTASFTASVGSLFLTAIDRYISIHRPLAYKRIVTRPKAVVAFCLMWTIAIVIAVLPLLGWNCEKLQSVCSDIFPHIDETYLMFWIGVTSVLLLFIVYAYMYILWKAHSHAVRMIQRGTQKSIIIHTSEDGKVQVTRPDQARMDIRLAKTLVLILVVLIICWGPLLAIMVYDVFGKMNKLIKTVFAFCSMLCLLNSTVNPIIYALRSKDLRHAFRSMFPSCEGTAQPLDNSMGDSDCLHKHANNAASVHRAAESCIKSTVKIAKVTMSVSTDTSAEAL
UniProt P20272, whole entry: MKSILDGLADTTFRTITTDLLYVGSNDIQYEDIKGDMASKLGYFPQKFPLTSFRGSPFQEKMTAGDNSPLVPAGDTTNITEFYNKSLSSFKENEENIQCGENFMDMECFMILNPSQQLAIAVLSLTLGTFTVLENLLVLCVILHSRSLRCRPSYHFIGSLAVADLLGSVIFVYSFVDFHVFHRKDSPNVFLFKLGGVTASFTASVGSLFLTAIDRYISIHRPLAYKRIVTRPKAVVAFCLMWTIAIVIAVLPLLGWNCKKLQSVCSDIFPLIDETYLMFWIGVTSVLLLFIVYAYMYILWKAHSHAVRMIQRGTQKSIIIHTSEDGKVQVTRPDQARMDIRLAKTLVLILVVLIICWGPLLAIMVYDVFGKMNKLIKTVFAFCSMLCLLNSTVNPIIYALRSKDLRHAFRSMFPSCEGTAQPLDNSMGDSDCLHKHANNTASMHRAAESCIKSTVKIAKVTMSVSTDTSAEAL

Key:
Cannabinoid receptor 1 [1] = target: T1, Cannabinoid receptor 1 (Homo sapiens, UniProt P21554); test: Positive allosteric modulatory activity at human CB1R expressed in CHO-K1 cells assessed as increase in CP55940-induced inhibition of forskolin-stimulated cAMP production after 30 mins in presence of CP55940 at EC20 concentration by hit-hunter cAMP assay relative to control; assay type: functional, cell-based
Outline: (§1)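 Read-out was chemiluminescent cAMP detection, fit with a variable-slope 4-parameter regression. n = 1–3 independent experiments in duplicate.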

Cannabinoid receptor 1 [2] = target: T1, Cannabinoid receptor 1; test: Positive allosteric modulatory activity at human CB1R expressed in CHO-K1 cells assessed as increase in CP55940-induced beta-arrestin2 recruitment after 90 mins in presence of CP55940 at EC20 concentration by pathhunter beta-arrestin assay relative to control; assay type: cell-based
Outline: (§2)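 Read-out was chemiluminescent β-arrestin2 recruitment, fit with a 4-parameter regression. n = 1–3 independent experiments in duplicate.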

Cannabinoid receptor 1 [3] = target: T1, Cannabinoid receptor 1; test: Positive allosteric modulatory activity at human CB1R expressed in CHO-K1 cells assessed as increase in CP55940-induced inhibition of forskolin-stimulated cAMP production after 30 mins in presence of CP55940 at EC20 concentration by hit-hunter cAMP assay; assay type: functional, cell-based; outline: as §1
Cannabinoid receptor 1 [4] = target: T1, Cannabinoid receptor 1; test: Positive allosteric modulatory activity at human CB1R expressed in CHO-K1 cells assessed as increase in CP55940-induced beta-arrestin2 recruitment after 90 mins in presence of CP55940 at EC20 concentration by pathhunter beta-arrestin assay; assay type: cell-based; outline: as §2
Cannabinoid receptor 1 [5] = target: Cannabinoid receptor 1 (Rattus norvegicus, UniProt P20272); test: Allosteric agonist activity at N-terminal GFP-tagged rat CB1R expressed in HEK293 cells assessed as inhibition of forskolin-induced cAMP production after 30 min by TR-FRET assay; assay type: functional, cell-based
Outline: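 HEK293 cells stably expressing N-terminal GFP-tagged rat CB1R were trypsin-EDTA dissociated and resuspended in HBSS with 0.1% BSA and 0.5mM IBMX at 500 cells/well. Cells got 5μM forskolin plus compound (1 pM – 10 μM) alone for 30 min. 4-parameter fit; Emin is the lower plateau. n ≥ 3, triplicate.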

Cannabinoid receptor 1 [6] = target: T1, Cannabinoid receptor 1; test: Displacement of [3H]SR141716A from human CB1R receptor expressed in CHO cell membranes after 2 hrs by liquid scintillation spectrometry analysis
Cannabinoid receptor 1 [7] = target: T1, Cannabinoid receptor 1; test: Displacement of [3H]CP55940 from human CB1R receptor expressed in CHO cell membranes after 60 mins by liquid scintillation spectrometry analysis
Cannabinoid receptor 1 [8] = target: T1, Cannabinoid receptor 1; test: Positive allosteric modulation activity at human CB1 receptor expressed in CHO cell membranes assessed as increase in [3H]CP55940 binding at 1 uM measured after 90 mins in presence of [35S]GTPgammaS by liquid scintillation analysis; assay type: functional
Cannabinoid receptor 1 [9] = target: T1, Cannabinoid receptor 1; test: Agonist activity at human CB1 receptor expressed in CHO cell membranes assessed as increase in G-protein coupling by measuring [35S]GTPgammaS binding after 90 mins in presence of [35S]GTPgammaS by liquid scintillation analysis; assay type: functional
Outline: (§3)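 [35S]GTPγS binding to G protein in membranes from CHO cells stably expressing human CB1R, with test compound given alone. Data fit to a variable-slope 4-parameter nonlinear regression. n = 4–6 independent experiments in duplicate.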

Cannabinoid receptor 1 [10] = target: T1, Cannabinoid receptor 1; test: Agonist activity at human CB1 receptor expressed in CHO cell membranes assessed as increase in G-protein coupling by measuring [35S]GTPgammaS binding after 90 mins in presence of [35S]GTPgammaS by liquid scintillation analysis relative to control; assay type: functional; outline: as §3
Cannabinoid receptor 1 [11] = target: T1, Cannabinoid receptor 1; test: Allosteric agonist activity at human CB1R expressed in CHO-K1 cells assessed as inhibition of forskolin-induced cAMP accumulation after 90 mins by hit-hunter cAMP assay; assay type: functional, cell-based
Outline: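 HitHunter CHO-K1 hCB1R cells (20,000/well) were held overnight in Opti-MEM with 1% FBS. They were then co-treated at 37°C with 10 μM forskolin plus compound alone (0.10 nM – 10 μM) for 90 min. Chemiluminescent cAMP detection followed (two 60-min room-temperature steps). Data as % forskolin, variable-slope 4-parameter fit; Emin is the lower plateau. n ≥ 6, triplicate.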

Cannabinoid receptor 1 [12] = target: T1, Cannabinoid receptor 1; test: (§4) Positive allosteric modulatory activity at human CB1R expressed in CHO-K1 cells assessed as increase in CP55940-induced inhibition of forskolin-induced cAMP accumulation after 90 mins in presence of 100 nM CP55940 by hit-hunter cAMP assay; assay type: functional, cell-based
Outline: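 Uses the HitHunter CHO-K1 hCB1R cAMP set-up above. Data normalized to % forskolin, 4-parameter fit. n ≥ 6, triplicate.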

Cannabinoid receptor 1 [13] = target: T1, Cannabinoid receptor 1; test: as §4, with “accumulation by measuring cAMP accumulation at minimal level at higher concentration” for “accumulation”, “assay relative to forskolin” for “assay”; assay type: functional, cell-based
Outline: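 Uses the HitHunter CHO-K1 hCB1R cAMP set-up above. […] Data normalized to % forskolin, 4-parameter fit. n ≥ 6, triplicate.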

Cannabinoid receptor 1 [14] = target: T1, Cannabinoid receptor 1; test: Allosteric agonist activity at human CB1R expressed in CHO-K1 cells assessed as increase in beta arrestin2 recruitment after 90 mins by pathhunter beta-arrestin assay; assay type: cell-based
Outline: (§5)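 PathHunter CHO-K1 hCB1R cells (20,000/well) were held overnight in Opti-MEM with 1% FBS. Compound alone (0.10 nM – 10 μM) was given at 37°C for 90 min, then detection solution for 60 min at room temperature and chemiluminescence was read.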

Cannabinoid receptor 1 [15] = target: T1, Cannabinoid receptor 1; test: Allosteric agonist activity at human CB1R expressed in CHO-K1 cells assessed as increase in beta arrestin2 recruitment after 90 mins by pathhunter beta-arrestin assay relative to CP55940; assay type: cell-based; outline: as §5
Cannabinoid receptor 1 [16] = target: T1, Cannabinoid receptor 1; test: Positive allosteric modulatory activity at human CB1R expressed in CHO-K1 cells assessed as increase in CP55940-induced beta arrestin2 recruitment after 90 mins in presence of 100 nM CP55940 by pathhunter beta-arrestin assay; assay type: cell-based
Cannabinoid receptor 1 [17] = target: T1, Cannabinoid receptor 1; test: Positive allosteric modulatory activity at human CB1R expressed in CHO-K1 cells assessed as maximal increase in CP55940-induced beta arrestin2 recruitment after 90 mins in presence of 100 nM CP55940 by pathhunter beta-arrestin assay relative to CP55940; assay type: cell-based
[18] = target: Cannabinoid receptor 1 (Rattus norvegicus) (UniProt P20272); test: Positive allosteric modulatory activity at N-terminal GFP-tagged rat CB1R receptor expressed in HEK293 cells assessed as downward shift in CP55940 dependent concentration response curve for inhibition of forskolin-induced cAMP accumulation after 30 mins by TR-FRET assay; assay type: functional, cell-based
[19] = target: Cannabinoid receptor 1 (Rattus norvegicus) (UniProt P20272); test: Positive allosteric modulatory activity at N-terminal GFP-tagged rat CB1R receptor expressed in HEK293 cells assessed as leftward shift in CP55940 dependent concentration response curve for inhibition of forskolin-induced cAMP accumulation after 30 mins by TR-FRET assay; assay type: functional, cell-based

O=[N+]([O-])CC(c1ccccc1F)c1c(-c2ccccc2)[nH]c2cc(F)ccc12 (stereo not given)
Emax (Cannabinoid receptor 1 [1]): 110% | Emax (Cannabinoid receptor 1 [2]): 54%

O=[N+]([O-])CC(c1ncccc1F)c1c(-c2ccccc2)[nH]c2ccccc12 (stereo not given)
EC50 (Cannabinoid receptor 1 [3]): 1900 nM | Emax (Cannabinoid receptor 1 [1]): 95% | EC50 (Cannabinoid receptor 1 [4]): > 10000 nM | Emax (Cannabinoid receptor 1 [2]): -1.4% | EC50 (Cannabinoid receptor 1 [5]): 690 nM | Ki (Cannabinoid receptor 1 [6]): 2300 nM | Ki (Cannabinoid receptor 1 [7]): 110 nM | Activity (Cannabinoid receptor 1 [8]): Active | EC50 (Cannabinoid receptor 1 [9]): 170 nM | Emax (Cannabinoid receptor 1 [10]): 22% | EC50 (Cannabinoid receptor 1 [11]): > 10000 nM | EC50 (Cannabinoid receptor 1 [12]): 14 nM | Emin (Cannabinoid receptor 1 [13]): 11% | EC50 (Cannabinoid receptor 1 [14]): 3300 nM | Emax (Cannabinoid receptor 1 [15]): 23% | EC50 (Cannabinoid receptor 1 [16]): > 10000 nM | Emax (Cannabinoid receptor 1 [17]): 24% | Activity [18]: Dose-dependent effect | Activity [19]: Dose-dependent effect

O=[N+]([O-])CC(c1ccccc1)c1c(-c2cccc(F)c2)[nH]c2ccccc12 (stereo not given)
Emax (Cannabinoid receptor 1 [1]): 140% | Emax (Cannabinoid receptor 1 [2]): 55%

O=[N+]([O-])CC(c1ccccc1F)c1c(-c2ccccc2)[nH]c2c(F)cccc12 (stereo not given)
Emax (Cannabinoid receptor 1 [1]): 100% | Emax (Cannabinoid receptor 1 [2]): 76%

The source made the active and inactive calls. No cut-off for these calls is given here.
